Laboratory results as given in PubChem BioAssay (NCATS).
Only a part is listed here, and it is no random draw. Records with an inconclusive call do not appear. Activity calls are given as the source filed them. Unless noted, calls come from the whole dose curve; as a rule, active = well fitted curve in the direction sought with a large enough effect; inconclusive = small, poorly fitted or top-dose-only effect, or another doubt; inactive = no such curve, though single readings can be large; an effect the other way counts as inactive or inconclusive.

Key:
[1] = target: Mitogen-activated protein kinase 10 (Mus musculus) (UniProt Q61831); assay: JNK3 AlphaScreen Assay (AID 530; active = well fitted curve in either direction with a large enough effect, not every such curve was filed as active;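 note: kinase came from lysate of stimulated human HepG2 cells; signal reports phosphorylation of biotinylated GST-cJun 1-79 at Ser73 with 10 µM ATP; % is set by controls: 0 for no effect and ±100 for the full control effect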); details: JNK3 lysate, c-Jun phosphorylation; at 57.1 µM (top of the series)
How it was run: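 HepG2 lysate (IL-1b/TNFa pre-activated) + biotin-GST-cJun 1-79 + anti-pSer73 cJun; cpd titration, 15 min RT; ATP 10 uM start; Tris pH 7.6, MgCl2, DTT, vanadate; beads in EDTA buffer; AlphaScreen.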

[2] = Cell Viability - NIH 3T3 (AID 541);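 note: cells exposed to compound for 40 hours; nearly all actives have a fitted effect of over 25% in size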; note: potency is the fitted concentration of half-maximal effect;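 for activity change, negative = cytotoxicity: plate controls were DMSO alone for no effect and tamoxifen positive control for full effect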
How it was run: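 qHTS format; 40 hr compound exposure, 37 °C; CellTiter-Glo luminescence (cellular ATP) read-out after 20 min at RT. Decrease in ATP = cytotoxicity; AC50 from standard Hill fit.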

[3] = Cell Viability - HUV-EC-C (AID 542); details: HUV-EC-C endothelial cell viability, qHTS; at 92.2 µM (top of the series);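 note: cells exposed to compound for 40 hours; % is set by controls: 0 for no effect and ±100 for the full control effect; nearly all actives have a fitted effect of over 35% in size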
How it was run: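 Luminescent ATP read-out (CellTiter-Glo, 20 min room temperature) after 40 hr compound treatment of HUV-EC-C cells at 37 °C. Concentration-response data fitted with the standard Hill equation to give AC50; tamoxifen and doxorubicin served as positive controls.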

[4] = Cell Viability - H-4-II-E (AID 543);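 note: cells exposed to compound for 40 hours; nearly all actives have a fitted effect of over 35% in size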; note: potency is the fitted concentration of half-maximal effect
How it was run: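 qHTS, rat hepatoma H-4-II-E, 1500 cells/well; 40 hr compound exposure, 37 °C; CellTiter-Glo ATP luminescence after 20 min RT; AC50 by standard Hill fit.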

[5] = Cell Viability - SH-SY5Y (AID 544);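 note: cells exposed to compound for 40 hours; nearly all actives have a fitted effect of over 55% in size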; note: potency is the fitted concentration of half-maximal effect
How it was run: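 SH-SY5Y, 1500 cells/well, 5 hr pre-incubation 37 °C; cpd 40 hr 37 °C; CellTiter-Glo 20 min RT; luminescence (ATP) read. qHTS concentration-response, Hill fit → AC50. Tamoxifen, doxorubicin as positive controls.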

[6] = Cell Viability - Renal Proximal Tubule (AID 545); details: renal proximal tubule cells viability, primary cells of rat origin; at 91.7 µM (top of the series);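 note: cells exposed to compound for 40 hours; nearly all actives have a fitted effect of over 40% in size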
How it was run: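 Luminescent ATP signal (CellTiter-Glo) served as the viability read-out after 40 hr compound exposure of freshly isolated rat proximal tubule cells at 37 °C. Concentration-dependent ATP loss was fitted with the Hill equation to give AC50.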

[7] = Cell Viability - Mesenchymal (AID 546); details: mesenchymal cells viability, qHTS; at 91.7 µM (top of the series);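 note: cells exposed to compound for 40 hours before reading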
How it was run: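 Human renal mesenchymal cells (glomerulus-derived), 1000 cells/well, 5 hr 37 °C pre-incubation; compound 40 hr, 37 °C; CellTiter-Glo, 20 min RT; luminescence; AC50 via Hill equation.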

[8] = Cellular Toxicity (caspase-3) HepG2 (AID 654); details: HepG2 caspase-3 activation, luminescence, 0% = DMSO only, 100% = tamoxifen; at 92.2 µM (top of the series);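 note: cells exposed to compound for 16 hours before reading; 0% = DMSO alone and 100% = caspase signal from 100 µM tamoxifen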
How it was run: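 Luminescent Caspase-Glo 3/7 readout after 16 hr compound exposure of human hepatocellular carcinoma HepG2 cells at 37 °C; qHTS concentration-response, normalized DMSO = 0%, 100 uM tamoxifen = 100%; AC50 by standard Hill equation.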

[9] = Cellular Toxicity (caspase-3) HUV-EC-C (AID 656); details: HUV-EC-C cells, caspase-3 activation (apoptosis), vehicle = 0, 100 µM tamoxifen = 100%; at 92.2 µM (top of the series)
How it was run: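 qHTS; HUV-EC-C, 1000 cells/well; 5 hr settle, 16 hr cmpd, 37°C; Caspase-Glo 3/7, 20 min RT; luminescence. Norm: DMSO = 0%, tamoxifen 100 uM = 100%. Hill-fit AC50.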

[10] = Cellular Toxicity (caspase-3) BJ (AID 658); details: BJ fibroblasts, luminescence, normalized: DMSO 0%, staurosporine 100%; at 91.7 µM (top of the series);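 note: cells exposed to compound for 16 hours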
How it was run: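 qHTS, BJ fibroblasts, 1000 cells/well; 5 hr preincubation, 16 hr compound, 37 °C; Caspase-Glo 3/7 reagent, 1 hr RT; luminescence. DMSO = 0%, 10 uM staurosporine = 100%. Hill-equation AC50.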

[11] = Cellular Toxicity (caspase-3) MRC-5 (AID 659); details: MRC-5 cells, luminescence, normalized: DMSO 0%, 10 µM staurosporine 100%; at 91.7 µM (top of the series)
How it was run: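 MRC-5 fibroblasts, 1500/well; 16 h cpd, 37 °C; Caspase-Glo 3/7, 1 h RT; lumi read. Norm: DMSO = 0%, 10 uM staurosporine = 100%. Hill-fit AC50 from qHTS conc-response.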

[12] = Cellular Toxicity (caspase-3) SK-N-SH (AID 661);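 note: cells exposed to compound for 16 hours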; note: potency is the fitted concentration of half-maximal effect
How it was run: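 Luminescent Caspase-Glo 3/7 read-out after 16 hr compound exposure of SK-N-SH neuroblastoma cells at 37 °C. Signal increase normalized to DMSO (basal) and 10 uM staurosporine (100%); AC50 from Hill equation fits of qHTS concentration-response data.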

[13] = Cellular Toxicity (caspase-3) Hek293 (AID 664); details: HEK293 caspase-3 activation, DMSO = 0%, 100 µM tamoxifen = 100%; at 92.2 µM (top of the series);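 note: cells exposed to compound for 16 h at 37 °C before readout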
How it was run: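 Luminescent Caspase-Glo 3/7 readout (aminoluciferin release) in HEK293 cells after 16 h compound treatment, 37 °C. Normalization: DMSO = basal, 100 uM tamoxifen = 100% stimulation. Concentration-response fitted with standard Hill equation for AC50.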

[14] = Cellular Toxicity (caspase-3) N2a (AID 665); details: N2a cells, luminescence, normalized: DMSO 0%, 10 µM staurosporine 100%; at 92.2 µM (top of the series);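 note: compound exposure lasted 16 h at 37 °C before readout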
How it was run: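 Luminescent Caspase-Glo 3/7 readout in N2a mouse neuroblastoma cells after 16 h compound exposure at 37 °C. Signal scaled to DMSO (basal) and 10 uM staurosporine (100%). Concentration-response fitted with Hill equation for AC50.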

[15] = Cell Viability - N2a (AID 540); details: N2a mouse neuroblastoma cell viability; at 92.2 µM (top of the series);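 note: plate controls were DMSO alone for no effect and tamoxifen control for full effect; nearly all actives have a fitted effect of over 45% in size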
How it was run: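 N2a mouse neuroblastoma, 1500 cells/well, 5 hr settle; compound 40 hr, 37 °C; CellTiter-Glo 20 min RT; luminescence; Hill-fit AC50.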

[16] = Cellular Toxicity (caspase-3) Jurkat (AID 655); details: Jurkat caspase-3 activation, luminescence, DMSO = 0%, tamoxifen = 100%; at 92.2 µM (top of the series);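 note: cells exposed to compound for 16 h at 37 °C before reading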
How it was run: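 5000 Jurkat cells/well; compound 16 hr, 37 °C; Caspase-Glo 3/7 added, 20 min RT; luminescence read. Norm: DMSO = 0%, tamoxifen 100 uM = 100%. AC50, Hill model.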

[17] = Cellular Toxicity (caspase-3) SHSY5Y (AID 657); details: SH-SY5Y caspase-3 activation, DMSO zero, 10 µM staurosporine = 100%; at 91.7 µM (top of the series);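 note: cells exposed to compound for 16 hours at 37 °C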
How it was run: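 qHTS, SH-SY5Y, 1500 cells/well, 5 h pre-incubation 37 °C; compound 16 h 37 °C; Caspase-Glo 3/7 1 h RT; luminescence. Norm.: DMSO = 0, 10 uM staurosporine = 100%. Hill fit → AC50.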

[18] = Cellular Toxicity (caspase-3) Mesangial (AID 660); details: mesangial cells, normalized: DMSO 0%, 100 µM tamoxifen 100%; at 91.7 µM (top of the series);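 note: combined caspase 3 and 7 activity read by Caspase-Glo luminescence; cells exposed to compound for 16 h before the caspase read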
How it was run: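 Luminescent Caspase-Glo 3/7 readout (aminoluciferin substrate cleavage, 20 min RT) after 16 h compound exposure at 37 °C of normal human mesangial cells. Signal increase normalized between DMSO basal and 100 uM tamoxifen; Hill-equation AC50.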

[19] = Cellular Toxicity (caspase-3) H-4-II-E (AID 663); details: H-4-II-E rat hepatoma, scaled: DMSO 0%, 100 µM tamoxifen 100%; at 92.2 µM (top of the series);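 note: cells exposed to compound for 16 hr before readout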
How it was run: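 H-4-II-E rat hepatoma, 1500 cells/well, 5 hr settle at 37 °C; compound 16 hr, 37 °C, complete medium; Caspase-Glo 3/7, 20 min RT; luminescence. DMSO = 0%, 100 uM tamoxifen = 100%; Hill-equation AC50.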

[20] = Cellular Toxicity (caspase-3) NIH 3T3 (AID 666); details: NIH 3T3 caspase-3 activation, apoptosis/toxicity, 0% DMSO, 100% is 100 µM tamoxifen; at 92.2 µM (top of the series);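 note: 0% = DMSO basal and 100% = 100 µM tamoxifen stimulation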
How it was run: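 NIH 3T3, 1000 cells/well, 5 hr settle then 16 hr compound at 37°C; Caspase-Glo 3/7, 20 min RT, luminescence. DMSO = basal, 100 uM tamoxifen = 100%. Hill-equation AC50, qHTS.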

CN(CCCl)CCCl
inactive: activity change, negative = inhibition [1] 5.27% | activity change, negative = cytotoxicity [3] -11.3% | activity change, negative = cytotoxicity [7] -9.1% | caspase-3 activation [8] 3.19% | caspase-3 activation [9] -1.44% | caspase-3 activation [10] 21.3% | caspase-3 activation [11] 4.53% | caspase-3 activation [13] 1.16% | caspase-3 activation [14] -3.66%
active: Potency [2] 31.6 µM | Potency [4] 31.6 µM | Potency [5] 7.94 µM | activity change, negative = cytotoxicity [6] -91.7% | Potency [12] 2.51 µM

O=[N+]([O-])C(Cl)(Cl)Cl
inactive: activity change, negative = inhibition [1] 0.508% | activity change, negative = cytotoxicity [15] 0.037% | Potency [2] | activity change, negative = cytotoxicity [3] -3.99% | Potency [4] | Potency [5] | activity change, negative = cytotoxicity [6] -9.04% | activity change, negative = cytotoxicity [7] 6.95% | caspase-3 activation [8] 0.637% | caspase-3 activation [16] -0.0911% | caspase-3 activation [9] 1.18% | caspase-3 activation [17] 0.027% | caspase-3 activation [10] -0.461% | caspase-3 activation [11] -0.799% | caspase-3 activation [18] 0.711% | Potency [12] | caspase-3 activation [19] 0.35% | caspase-3 activation [13] 1.25% | caspase-3 activation [14] -2.99% | caspase-3 activation [20] 3.25%
